Data: US8053574B2, “Organic compounds” (Novartis AG, priority 2007, dated 2011)

Protein sequences, listed by entry. Tags and fused reporters are not part of them. Lines headed by an entry give the natural chain unless they say otherwise; changes in a name come on top.
UniProt P48736: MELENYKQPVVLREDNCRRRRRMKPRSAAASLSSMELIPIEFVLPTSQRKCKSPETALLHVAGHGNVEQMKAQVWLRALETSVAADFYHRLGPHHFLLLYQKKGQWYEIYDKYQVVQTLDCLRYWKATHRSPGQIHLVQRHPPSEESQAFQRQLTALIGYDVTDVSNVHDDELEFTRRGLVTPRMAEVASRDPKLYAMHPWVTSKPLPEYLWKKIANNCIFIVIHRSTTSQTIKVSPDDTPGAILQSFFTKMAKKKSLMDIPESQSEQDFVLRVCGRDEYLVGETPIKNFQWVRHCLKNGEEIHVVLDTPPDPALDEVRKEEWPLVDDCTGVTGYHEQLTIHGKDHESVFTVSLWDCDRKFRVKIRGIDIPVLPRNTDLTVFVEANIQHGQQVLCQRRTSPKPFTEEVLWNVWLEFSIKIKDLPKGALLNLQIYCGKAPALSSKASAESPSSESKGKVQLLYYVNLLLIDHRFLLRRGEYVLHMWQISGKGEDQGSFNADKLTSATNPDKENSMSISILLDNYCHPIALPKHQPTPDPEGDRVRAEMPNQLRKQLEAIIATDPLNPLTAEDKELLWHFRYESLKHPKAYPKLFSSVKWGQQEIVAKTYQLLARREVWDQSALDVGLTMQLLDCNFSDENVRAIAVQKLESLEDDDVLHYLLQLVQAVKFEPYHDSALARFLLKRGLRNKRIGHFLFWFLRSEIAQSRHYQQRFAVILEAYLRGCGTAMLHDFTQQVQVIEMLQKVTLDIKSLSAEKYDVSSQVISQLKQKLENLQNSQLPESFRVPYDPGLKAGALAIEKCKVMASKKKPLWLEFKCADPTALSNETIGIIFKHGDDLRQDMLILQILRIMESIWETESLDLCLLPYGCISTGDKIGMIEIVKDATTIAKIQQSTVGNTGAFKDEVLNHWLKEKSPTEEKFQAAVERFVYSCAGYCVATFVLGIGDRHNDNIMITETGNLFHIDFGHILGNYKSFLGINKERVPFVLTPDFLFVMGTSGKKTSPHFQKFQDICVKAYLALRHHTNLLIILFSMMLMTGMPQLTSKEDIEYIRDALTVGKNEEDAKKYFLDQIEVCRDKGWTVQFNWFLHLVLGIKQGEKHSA

Biological target: PI3K γ (Homo sapiens, UniProt P48736)
Experiment: PI3 kinase phosphorylation assay (Biological Method 1), Ki γ
Format: biochemical
Settings: Table 1, compounds of formula X
Method: The compounds of the invention were synthesized according to the examples provided above. PI3K inhibitory (IC50) values of the compounds were determined according to Biological Method 1.
Assay 1: Homogenous Solution Phase Assay
Compounds to be tested are dissolved in DMSO and directly distributed into 384-well flashplates at 1.25 μL per well. To start the reaction, 20 μL of 6 nM PI3 kinase are added into each well followed by 20 μL of 400 nM ATP containing a trace of radiolabeled ATP and 900 nM 1-alpha-phosphatidylinositol (PI). The plates are briefly centrifuged to remove any air gap. The reaction is performed for 15 minutes and then stopped by the addition of 20 μL of 100 mM EDTA. The stopped reaction is incubated overnight at RT to allow the lipid substrate to bind by hydrophobic interaction to the surface of the flashplate. The liquid in the wells is then washed away, and the labeled substrate is detected with scintillation counting.
Assay 2: One Step Solid Phase Assay
This method is similar to Assay 1 except that the lipid substrate (1-alpha-phosphatidylinositol (PI)) is first dissolved in a coating buffer and incubated on flashplate at room temperature overnight to allow the lipid substrate to bind by hydrophobic interaction to the surface of the flashplate. Unbound substrate is then washed away. On the day of assay, 20 μL of 6 nM PI3 kinase are added into each well followed by 20 μL of 400 nM ATP containing trace of radiolabeled ATP. Compounds are added together with enzyme and ATP to the lipid-coated plates. The plates are briefly centrifuged to remove any air gap. The reaction is performed for two to three hours. The reaction is stopped by addition of 20 μL of 100 mM EDTA or by immediate plate washing. Phosphorylated lipid substrate is detected by scintillation counting.
Assay 3: ATP Depletion Assay
Compounds to be tested are dissolved in DMSO and directly distributed into a black 384-well plate at 1.25 μL per well. To start the reaction, 25 μL of 10 nM PI3 kinase and 5 μg/mL 1-alpha-phosphatidylinositol (PI) are added into each well followed by 25 μL of 2 μM ATP. The reaction is performed until approx 50% of the ATP is depleted, and then stopped by the addition of 25 μL of KinaseGlo solution. The stopped reaction is incubated for 5 minutes and the remaining ATP is then detected via luminescence.

Ki [µM]	Molecule
0.121	CC(C)(C)NC(=O)CCNC(=O)Nc1cn2cc(-c3cccnc3)ccc2n1 [drawing 35]
0.277	Cn1nnc(CCNC(=O)Nc2cn3cc(-c4cccnc4)ccc3n2)n1 [drawing 85]
0.584	Cn1nnnc1CCNC(=O)Nc1cn2cc(-c3cccnc3)ccc2n1 [drawing 87]
0.177	CCc1nnn(CCNC(=O)Nc2cn3cc(-c4cccnc4)ccc3n2)n1 [drawing 101]
0.08	CCn1nnc(CCNC(=O)Nc2cn3cc(-c4cccnc4)ccc3n2)n1 [drawing 23]
0.081	CCn1cnc(CCNC(=O)Nc2cn3cc(-c4cccnc4)ccc3n2)c1 [drawing 77]
0.058	CC(C)n1nnc(CCNC(=O)Nc2cn3cc(-c4cccnc4)ccc3n2)n1 [drawing 15]
0.043	CC(C)(C)OC(=O)CCNC(=O)Nc1cn2cc(-c3cccnc3)ccc2n1 [drawing 79]
0.083	CCn1nnc(CCNC(=O)Nc2cn3cc(-c4cncc(C(=O)N5CCOCC5)c4)ccc3n2)n1

Same assay, conditions: Table 2, compounds of formula X

Ki [µM]	Molecule
0.584	Cn1nnnc1CCNC(=O)Nc1cn2cc(-c3cccnc3)ccc2n1 [Example 1-37, 1-[2-(1-Methyl-1H-tetrazol-5-yl)-ethyl]-3-(6-pyridin-3-yl-imidazo[1,2-a]pyridin-2-yl)-urea]
0.08	CCn1nnc(CCNC(=O)Nc2cn3cc(-c4cccnc4)ccc3n2)n1 [Example 1-5, 1-[2-(2-Ethyl-2H-tetrazol-5-yl)-ethyl]-3-(6-pyridin-3-yl-imidazo[1,2-a]pyridin-2-yl)-urea]
0.121	CC(C)(C)NC(=O)CCNC(=O)Nc1cn2cc(-c3cccnc3)ccc2n1 [Example 1-11, N-tert-Butyl-3-[3-(6-pyridin-3-yl-imidazo[1,2-a]pyridin-2-yl)-ureido]-propionamide]
0.177	CCc1nnn(CCNC(=O)Nc2cn3cc(-c4cccnc4)ccc3n2)n1 [Example 1-44, 1-[2-(5-Ethyl-tetrazol-2-yl)-ethyl]-3-(6-pyridin-3-yl-imidazo[1,2-a]pyridin-2-yl)-urea]
0.058	CC(C)n1nnc(CCNC(=O)Nc2cn3cc(-c4cccnc4)ccc3n2)n1 [Example 1-1, 1-[2-(2-Isopropyl-2H-tetrazol-5-yl)-ethyl]-3-(6-pyridin-3-yl-imidazo[1,2-a]pyridin-2-yl)-urea]
0.277	Cn1nnc(CCNC(=O)Nc2cn3cc(-c4cccnc4)ccc3n2)n1 [Example 1-36, 1-[2-(2-Methyl-2H-tetrazol-5-yl)-ethyl]-3-(6-pyridin-3-yl-imidazo[1,2-a]pyridin-2-yl)-urea]
0.081	CCn1cnc(CCNC(=O)Nc2cn3cc(-c4cccnc4)ccc3n2)c1 [Example 1-32, 1-[2-(1-Ethyl-1H-imidazol-4-yl)-ethyl]-3-(6-pyridin-3-yl-imidazo[1,2-a]pyridin-2-yl)-urea]
0.043	CC(C)(C)OC(=O)CCNC(=O)Nc1cn2cc(-c3cccnc3)ccc2n1 [Example 1-33, 3-[3-(6-Pyridin-3-yl-imidazo[1,2-a]pyridin-2-yl)-ureido]-propionic acid tert-butyl ester]

Molecule	Ki [µM]
1-[2-(2-Isopropyl-2H-tetrazol-5-yl)-ethyl]-3-(6-phenyl-imidazo[1,2-a]pyridin-2-yl)-urea [Example 1-10]	0.083
